From patent publication US6143769A, “Phenylacetic acid benzylamides” (Karl Thomae GmbH, priority 1983, dated 2000)

Tested on: glucose
Experiment: Study 5: plasma glucose after 1 mg AG-EE 388 ZW i.v., oral solution or capsule
Format: in vivo, human
Settings: 1.25 h

## CCOc1cc(CC(=O)NC(CC(C)C)c2ccccc2N2CCCCC2)ccc1C(=O)O (racemic) [AG-EE 388 ZW, 2-ethoxy-4-[N-[1-(2-piperidino-phenyl)-3-methyl-1-butyl]aminocarbonylmethyl]-benzoic acid]
  Glucose (mean): 4.40 mmol/L
